This excerpt belongs to a sample that is enriched for hits.
GIV Gai3 FP: GIV-Galpha-i interaction inhibition; P08753; Galpha-i3/FITC-GIV peptide fluorescence polarization, 90 min; active compounds read low; scaled: aluminum fluoride 0%, vehicle 100%; percent of control (FP), % (no concentration beside the values); 210,000 compounds, 0.42% hits; AID 1224905;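 active means replicate mean at 85% of control or lower, very high polarization wells dropped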;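 further: wells of about 15 µL received 100 nL stock; the first replicate is given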
* hit, by the source's call.

SMILES	GIV Gai3 FP
COc1cccc(N=C2SC(C(=O)Nc3ccc(Br)cc3)CC(=O)N2C)c1 (configuration not stated)	114.9
O=C(O)CCCN1C(=O)/C(=C/c2c(N3CCN(Cc4ccccc4)CC3)nc3ccccn3c2=O)SC1=S	145.6
CC(c1ccccc1)N1C(=O)/C(=C/c2c(N3CCN(C)CC3)nc3ccccn3c2=O)SC1=S (configuration not stated)	224.5
CC(C)CN1C(=O)/C(=C/c2c(N3CCN(CCO)CC3)nc3ccccn3c2=O)SC1=S	41.4*
O=C(Cn1nnc2sc3c(c2c1=O)CCCC3)NC1CCCCC1	106.3
COc1cc(C2C(C#N)=C(N)Oc3n[nH]c(-c4cc(OC)c(OC)c(OC)c4)c32)cc(Cl)c1O (configuration not stated)	109.8
Cc1cc(=O)oc2c3c(ccc12)O/C(=C\c1ccc(O)cc1)C3=O	117.0
CCN1/C(=C/C2=CC(=O)CC(C)(C)C2)Sc2ccccc21	-23.8*
CN1C(=C2C(=O)CC(C)(C)CC2=O)Sc2ccccc21	95.2
CCN1C(=O)CCSc2ccccc21	103.9
CCN1/C(=C\C=C2C(=O)OC(C)(C)OC2=O)Sc2ccccc21	-33.6*
CCN1/C(=C\C(=O)C2CC2)Sc2ccccc21	99.8
CCN1/C(=C\C(=S)Nc2ccccc2)Sc2ccccc21	102.3
O=C(NCCSc1ccccc1)c1nc(-n2cnnc2)ccc1Br	98.3
O=c1[nH]c(N2CCc3ccccc3C2)nc2c(-c3cccc(Br)c3)csc12	113.1
CN(C)c1nc(C(N)=O)nc(N(C)C)n1	105.2
CCC(c1ccccc1)c1nc(-c2ccccc2)no1 (configuration not stated)	103.7
CC1CN(S(=O)(=O)c2ccc(NC(=O)CCCCCN3C(=O)c4ccccc4C3=O)cc2)CC(C)O1 (configuration not stated)	103.9
CCOC(=O)c1nc(NCc2ccc3c(c2)OCO3)c2ccccc2n1	101.9
c1cc2c(cc1CNc1nc3nonc3nc1NCc1ccc3c(c1)OCO3)OCO2	106.9
Cc1cc2nc(NCc3ccc4c(c3)OCO4)c(C(=O)OC(C)C)nc2cc1C	76.0*
CC(C)N/C=C1\C(=O)c2ccccc2N(C)S1(=O)=O	99.1
Cn1c(-c2ccccc2)cc(C=Nc2ccccc2)c1O	116.8
CC(C)N=Cc1cc2n(c1O)-c1ccccc1C2=O	-20.3*
Cc1noc(Cn2c(=O)c3ccccc3n(CC(=O)Nc3ccccc3C)c2=O)n1	107.4
O=c1oc2ccccc2nc1/C=C(\O)c1ccccc1	46.1*
Cc1nc(C)c(/C(O)=C/c2nc3cc(Cl)ccc3oc2=O)o1	110.7
O=c1oc2ccc(Cl)cc2nc1/C=C(\O)c1ccco1	2.2*
O=C(O)CCc1nc2ccccc2oc1=O	113.0
CC(C)(C)/C(O)=C/c1nc2ccccc2oc1=O	102.9
CC(C)C/C(O)=C/c1nc2cc(Cl)ccc2oc1=O	100.7
O=C1c2ccccc2NC(c2ccc(OCc3ccccc3Cl)cc2)N1c1ccc(Cl)cc1 (configuration not stated)	112.4
COc1cccc(C(=O)N2c3ccccc3N3C(c4c(C)c(C)cc(C)c4C)=NON23)c1	109.8
Cc1[nH]nc(-c2ccc(S(=O)(=O)N3CCOCC3)o2)c1C	110.7
CC1=C(C(=O)OC2CCCC(C)C2)C(c2ccccc2OCc2ccccc2)NC(=O)N1 (configuration not stated)	102.1
CCNc1cc(N2CCN(c3ccccc3)CC2)c2noc3c2c1C(=O)c1ccccc1-3	114.3
CN(C)CCNc1cc(N2CCOCC2)c2noc3c2c1C(=O)c1ccccc1-3	-68.2*
CCCCNc1cc(N2CCC(C)CC2)c2noc3c2c1C(=O)c1ccccc1-3	2.5*
CCNc1cc(N2CCCC2)c2noc3c2c1C(=O)c1ccccc1-3	201.1
Cc1ccc(Nc2cc(N3CCCCC3)c3noc4c3c2C(=O)c2ccccc2-4)cc1	125.9
CC1CCN(c2cc(N3CCOCC3)c3c4c(onc24)-c2ccccc2C3=O)CC1	173.7
CCNc1cc(N2CCC(C)CC2)c2noc3c2c1C(=O)c1ccccc1-3	139.4
CCNc1cc(N2CCN(C3CCCCC3)CC2)c2noc3c2c1C(=O)c1ccccc1-3	164.0
CN(C)CCNc1cc(N2CCN(C(=O)c3ccco3)CC2)c2noc3c2c1C(=O)c1ccccc1-3	-31.4*
Cn1nc(C(=O)Nc2ccccc2)c2c1-c1ccccc1SC2	101.1
O=C1[C@@H]2Cc3ccccc3CN2C(=O)N1c1ccc2c(c1)OCCO2	102.2
COc1cc(C)c(C)cc1S(=O)(=O)Nc1ccc(N2CCCS2(=O)=O)cc1	97.7
COC(=O)c1ccc(NC(=O)CSc2nc3c([nH]2)c(=O)n(C)c(=O)n3C)cc1	105.5
Cc1ccc(S(=O)(=O)CC(=O)Nc2sccc2C(N)=O)cc1	113.5
Cc1cc(C)c(S(=O)(=O)Nc2cnc(N3CCCC3)c(C(=O)O)c2)cc1C	72.1*
COc1ccc(OC)c(S(=O)(=O)Nc2cnc(N3CCCC3)c(C(=O)O)c2)c1	93.7
Cc1cc(C)c(S(=O)(=O)Nc2cnc(N3CCNCC3)c(C(=O)N3CCCCC3C)c2)cc1C (configuration not stated)	98.0
CCOCCOC(=O)COc1ccc2c(=O)c(Oc3ccc(C(C)(C)C)cc3)coc2c1	106.5
N=C1/C(=C\c2cn(CCOc3ccccc3Cl)c3ccccc23)C(=O)N=C2SC=NN12	10.8*
Cc1ccc(C)c(OCCn2cc(/C=C3\C(=N)N4N=C(S(C)(=O)=O)SC4=NC3=O)c3ccccc32)c1	100.1
CCC1=NN2C(=N)/C(=C/c3cn(CCOc4cccc(OC)c4)c4ccccc34)C(=O)N=C2S1	100.3
O=C1C2=C(Nc3ccccc3SC2c2ccccc2Br)c2ccccc21 (configuration not stated)	99.1
CCN(CC)c1ccc2cc(-c3nc(-c4ccc(Cl)cc4)cs3)c(=Nc3ccc(OC)cc3)oc2c1	135.8
CC(=O)Oc1ccc2cc(-c3nc4c(s3)CCc3ccccc3-4)c(=O)oc2c1	-78.8*
O=C(Oc1ccc2cc(-c3nc4ccccc4s3)c(=O)oc2c1)c1ccccc1	139.4

2 entries from above, with each value named.
> CCC1=NN2C(=N)/C(=C/c3cn(CCOc4cccc(OC)c4)c4ccccc34)C(=O)N=C2S1
  GIV Gai3 FP = 100.3

> O=C1C2=C(Nc3ccccc3SC2c2ccccc2Br)c2ccccc21 (configuration not stated)
  GIV Gai3 FP = 99.1

Other entries follow:
SMILES	GIV Gai3 FP
CC(=O)Oc1ccc2cc(-c3nnc(-c4ccccc4)o3)c(=O)oc2c1	172.8
O=C(c1csc(-c2ccncc2)n1)N1CCN(c2ccccn2)CC1	108.6
CCOc1cc(/C=C2/SC(=Nc3ccccc3)NC2=O)cc(Br)c1O	276.4
CCOc1cc(Br)c(Br)c(/C=C2\SC(=S)N(CC(=O)O)C2=O)c1O	141.8
CCOc1cc(/C=C2/SC(=S)N(C)C2=O)cc(Br)c1O	-46.7*
O=C(NCC1CCCO1)c1cn(-c2cc(N3CCSCC3)ncn2)cn1 (configuration not stated)	105.6
CC(C)C(=O)OCc1cc(=O)n2ccsc2n1	100.0
CCOC(=O)C1=C(C)N=c2s/c(=C\c3cc(OC)c(OC)c(OC)c3)c(=O)n2C1c1ccc2c(c1)OCO2 (configuration not stated)	102.8
CCOC(=O)C1=C(C)N=c2s/c(=C\c3cc(Br)c(O)c(OC)c3)c(=O)n2C1c1ccc(OC)c(OC)c1 (configuration not stated)	147.4
CCOC(=O)C1=C(C)N=c2s/c(=C\c3cc(Br)c(O)c(OC)c3)c(=O)n2C1c1cccs1 (configuration not stated)	76.7*
CCOC(=O)C1=C(C)N=c2s/c(=C\c3cc(Br)c(OC)cc3OC)c(=O)n2C1c1cccs1 (configuration not stated)	146.7

Exported field by field: part of the list above
CCOC(=O)C1=C(C)N=c2s/c(=C\c3cc(OC)c(OC)c(OC)c3)c(=O)n2C1c1ccc2c(c1)OCO2 (configuration not stated)
  GIV Gai3 FP: 102.8

CCOC(=O)C1=C(C)N=c2s/c(=C\c3cc(Br)c(O)c(OC)c3)c(=O)n2C1c1ccc(OC)c(OC)c1 (configuration not stated)
  GIV Gai3 FP: 147.4

CCOC(=O)C1=C(C)N=c2s/c(=C\c3cc(Br)c(O)c(OC)c3)c(=O)n2C1c1cccs1 (configuration not stated)
  GIV Gai3 FP: 76.7*

CCOC(=O)C1=C(C)N=c2s/c(=C\c3cc(Br)c(OC)cc3OC)c(=O)n2C1c1cccs1 (configuration not stated)
  GIV Gai3 FP: 146.7

Bioassay records as filed in PubChem BioAssay.
